Experimental data: patent US20060276520A1 (priority 2002, published 2006)

By UniProt entry, the sequences of proteins in these tests, tags left out.
UniProt Q9NYG5, whole entry: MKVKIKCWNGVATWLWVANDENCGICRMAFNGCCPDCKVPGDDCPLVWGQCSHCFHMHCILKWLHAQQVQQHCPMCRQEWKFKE
UniProt Q9UJX6, whole entry: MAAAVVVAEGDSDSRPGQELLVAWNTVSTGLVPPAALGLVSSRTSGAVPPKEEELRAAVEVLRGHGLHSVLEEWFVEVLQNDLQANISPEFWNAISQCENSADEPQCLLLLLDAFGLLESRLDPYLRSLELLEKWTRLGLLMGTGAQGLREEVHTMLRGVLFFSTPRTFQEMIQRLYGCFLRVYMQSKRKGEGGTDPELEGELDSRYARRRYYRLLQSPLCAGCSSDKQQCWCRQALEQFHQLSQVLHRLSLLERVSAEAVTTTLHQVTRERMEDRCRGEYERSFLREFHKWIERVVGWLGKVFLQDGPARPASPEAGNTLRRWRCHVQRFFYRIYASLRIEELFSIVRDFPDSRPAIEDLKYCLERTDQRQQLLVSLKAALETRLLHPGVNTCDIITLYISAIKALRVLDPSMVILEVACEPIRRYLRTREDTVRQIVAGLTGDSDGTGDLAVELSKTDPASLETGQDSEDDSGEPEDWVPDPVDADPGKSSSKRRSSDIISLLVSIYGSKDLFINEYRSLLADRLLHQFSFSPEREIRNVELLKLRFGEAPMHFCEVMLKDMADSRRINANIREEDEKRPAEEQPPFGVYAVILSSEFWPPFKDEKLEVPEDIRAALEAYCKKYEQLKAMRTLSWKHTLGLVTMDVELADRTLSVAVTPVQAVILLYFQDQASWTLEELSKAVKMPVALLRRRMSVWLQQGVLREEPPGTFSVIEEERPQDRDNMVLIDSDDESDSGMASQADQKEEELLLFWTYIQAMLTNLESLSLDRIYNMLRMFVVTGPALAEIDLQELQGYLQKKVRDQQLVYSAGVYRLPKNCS

Target: APC2/APC11 (Homo sapiens, UniProt Q9NYG5+Q9UJX6)

Question: For `O=C(O)c1ccc(-c2ccc(/C=C3\SC(=S)N(C4CCCCC4)C3=O)o2)cc1`, which IC50 is on record?
Answer: The IC50 was 400 nM.
